The list shows a part of the results, in another mix than the full data. Activity calls are given as the source filed them.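 The calls were made as follows: active = activation above a set limit, the screen-wide mean activation plus 3 SD (cut at about 8.5% in these data); inactive = the rest.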
target: 5-hydroxytryptamine receptor 1E (Homo sapiens) (UniProt P28566); experiment: 5-HT1E receptor agonists, primary screen, cell-based, HTS (AID 574); conditions: CHO 5-HT1E Ga15 NFAT-bla reporter, FRET; at 6 µM; stronger effect = higher value; 0% DMSO wells, 100% control agonist wells;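 also: 100% = positive control agonist at 1 µM giving full maximal response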

By UniProt entry, the sequences of proteins in these tests, tags left out.
UniProt P28566, whole entry: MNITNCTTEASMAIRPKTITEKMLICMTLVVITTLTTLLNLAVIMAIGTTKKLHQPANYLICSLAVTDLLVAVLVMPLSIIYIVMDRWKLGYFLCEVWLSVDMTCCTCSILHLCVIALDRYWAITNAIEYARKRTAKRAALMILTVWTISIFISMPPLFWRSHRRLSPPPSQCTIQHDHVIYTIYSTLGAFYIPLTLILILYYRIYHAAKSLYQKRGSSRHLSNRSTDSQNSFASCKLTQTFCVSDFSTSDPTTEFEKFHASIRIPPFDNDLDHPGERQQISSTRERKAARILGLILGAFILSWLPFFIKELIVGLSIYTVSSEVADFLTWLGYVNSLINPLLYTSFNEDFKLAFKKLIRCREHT

SMILES | activation
N/C(=N\O)c1c(N)no[n+]1[O-] | inactive: 0.8%
CCOc1ncccc1C(=O)NCC1(N2CCOCC2)CCCCC1 | inactive: 0%
CCC(CO)(C(=O)OC1CN2CCC1CC2)c1ccccc1 (configuration not stated) | inactive: 0.4%
Fc1ccccc1NC1CCN(Cc2ccccc2)CC1 | inactive: 0.6%
COc1ccc(NC2CCN(CCc3ccccc3)CC2)c(OC)c1 | inactive: 0.3%
O=C(OC1CN2CCC1CC2)C1c2ccccc2Oc2ccccc21 (configuration not stated) | inactive: -0.7%
N#CC1(Nc2ccccc2)CCN(CCc2ccccc2)CC1 | inactive: -0.4%

Reference: PubChem BioAssay AID574 (The Scripps Research Institute Molecular Screening Center, 2007)
